The text below walks through data of US20260124311A1, “POLYMER-DRUG CONJUGATES FOR STING PATHWAY ACTIVATION” (Vanderbilt University, priority 2022, published 2026).

Amino acid sequences for entries named in this document (tags omitted).
UniProt Q86WV6, whole entry R71H/G230A/H232R/R293Q: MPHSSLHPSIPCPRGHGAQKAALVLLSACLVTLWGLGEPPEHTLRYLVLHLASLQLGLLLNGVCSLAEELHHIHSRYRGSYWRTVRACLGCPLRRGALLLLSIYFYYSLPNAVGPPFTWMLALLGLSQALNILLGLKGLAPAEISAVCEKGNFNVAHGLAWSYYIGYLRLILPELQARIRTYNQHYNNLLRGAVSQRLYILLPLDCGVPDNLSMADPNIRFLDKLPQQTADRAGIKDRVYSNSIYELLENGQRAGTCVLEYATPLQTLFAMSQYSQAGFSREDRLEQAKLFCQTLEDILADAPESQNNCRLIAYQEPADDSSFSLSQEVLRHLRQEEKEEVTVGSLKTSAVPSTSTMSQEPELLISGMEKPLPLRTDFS
UniProt Q86WV6, whole entry H232R: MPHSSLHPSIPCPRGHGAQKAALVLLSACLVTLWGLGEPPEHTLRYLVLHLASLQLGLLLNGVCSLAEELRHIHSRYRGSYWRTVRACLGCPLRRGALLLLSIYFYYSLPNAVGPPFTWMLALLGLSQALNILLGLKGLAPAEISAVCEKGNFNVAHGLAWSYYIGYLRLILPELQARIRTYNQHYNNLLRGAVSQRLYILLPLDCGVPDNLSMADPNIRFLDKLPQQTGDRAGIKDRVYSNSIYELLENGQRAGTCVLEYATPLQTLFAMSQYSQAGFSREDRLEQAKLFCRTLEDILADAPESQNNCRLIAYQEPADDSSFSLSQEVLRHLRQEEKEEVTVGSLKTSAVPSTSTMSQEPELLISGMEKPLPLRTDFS

The conditions of series [1]: FIG. 13.
For series [2] the following is noted: healthy mice, intravenous, approximately 0.012 μmol diABZI/mouse, 24 hours sampling.
In a further series the target is T1, STING (Homo sapiens, UniProt Q86WV6, G230A/H232R/R293Q/R71H).
T1 construct: host or cells: THP1-Dual cells
Kind of series: THP1-Dual reporter assay (IRF-luciferase, Quanti-Luc) for activation of STING. The note with it: Table 2, FIG. 18A; IRF signaling in THP-1 Dual reporter cells. It counts as cell-based. For orientation: Reporter assays use an easily measured gene product as a stand-in for the process of interest.

Series [3] concerns the target T2, recombinant human STING (hSTING; STING isoform 1) (Homo sapiens, UniProt Q86WV6).
T2 construct: made in house; host or cells: Escherichia coli (New England Biolabs, T7 Shuffle Express line)
Kind of series: Isothermal calorimetry (ITC) binding to recombinant human STING. The conditions noted are these: PEGylated conjugates, unit inferred, read-out: binding affinities to STING (KD). On the technique in general: ITC needs no label: the signal is the heat of the interaction.

Like-named read-outs stand apart in the source and are kept apart here.

In the case of “25 kDa-poly(dimethylacrylamide-co-azidethylmethacrylate)-graft-diamidobenzimidazole) [25 kDa DMA-g-V/C-diABZI (28)]”, the “particle formation by DLS” value in series [1] is “no uniform particle formation”. In addition, the serum half-life in series [2] is 1.1 h; in series [2] (listed as 28), “approximately 1.07 hours”.

In the case of “100 kDa-poly(dimethylacrylamide-co-azidethylmethacrylate)-graft-diamidobenzimidazole) [100 kDa DMA-g-V/C-diABZI (29)]”, the “particle formation by DLS” value in series [1] is on record as “no uniform particle formation”. Besides, the serum half-life in series [2] was roughly 4.4 h.

For orientation: EC50 means the concentration at which the effect is half-maximal. Regarding “diABZI(CTA)-DMA-25k [25 kDa diABZI-DMA (32)]”, the EC50 on STING was determined as 123 nM.

On to “diABZI(CTA)-DMA-50k [50 kDa diABZI-DMA (33)]”, for which, on STING, the midpoint of the response, the EC50, lay at 67.3 nM.

In turn, “diABZI(CTA)-DMA-175k [175 kDa diABZI-DMA (34)]” came in with an EC50 at STING of 163 nM.

Broadly, the Kd is the free concentration of one partner at which half of the binding sites on the other are occupied at equilibrium, for simple one-to-one binding. Take diABZI-20k PEG [diABZI-20k PEG (18)]: the Kd in series [3] turned out to be 767 ± 335 nM.

As for “diABZI-V/C-20k PEG [diABZI-V/C-20k PEG (21)]”, the Kd in series [3] turned out to be 298 ± 290 nM.
